The data set in a line: Solubility in water.

Take “1-[2-(2,4-Dimethylphenylsulfanyl)-phenyl]piperazine meso-tartaric acid [meso-tartrate]”: the solubility in water is approximately 700 µg/mL.

The record behind these values is patent publication US11458134B2, “1-[2-(2,4-dimeihylphenylsulfanyl)-phenyl]piperazine as a compound with combined serotonin reuptake, 5-HT3 and 5-HT1A activity for the treatment of cognitive impairment” (H. Lundbeck A/S, priority 2006, dated 2022).
